Tested on: pancreatic (PANC-1) tumor cell lines
Assay: Cytotoxicity vs. PANC-1 tumor cell line
Conditions: PANC-1, relative to 1

“8-O-acetyl-mycothiazole [8-O-acetyl-mycothiazole (2)]” was tested, and the “fold less potent than 1 (cytotoxicity)” value was “ten fold less potent”.
